In this assay the target is Transient receptor potential cation channel subfamily M member 2 (Homo sapiens, UniProt O94759). The assay can be described thus: Inhibition of human TRPM2 expressed in HEK293T cells cotransfected with GFP assessed as reduction in ADPR-induced current by whole cell patch-clamp method. It counts as cell-based. A general note: Patch clamp records ionic current or voltage across a cell membrane.

Sequences of proteins named here, by UniProt entry; tags and fusion partners are left off.
UniProt O94759, whole entry: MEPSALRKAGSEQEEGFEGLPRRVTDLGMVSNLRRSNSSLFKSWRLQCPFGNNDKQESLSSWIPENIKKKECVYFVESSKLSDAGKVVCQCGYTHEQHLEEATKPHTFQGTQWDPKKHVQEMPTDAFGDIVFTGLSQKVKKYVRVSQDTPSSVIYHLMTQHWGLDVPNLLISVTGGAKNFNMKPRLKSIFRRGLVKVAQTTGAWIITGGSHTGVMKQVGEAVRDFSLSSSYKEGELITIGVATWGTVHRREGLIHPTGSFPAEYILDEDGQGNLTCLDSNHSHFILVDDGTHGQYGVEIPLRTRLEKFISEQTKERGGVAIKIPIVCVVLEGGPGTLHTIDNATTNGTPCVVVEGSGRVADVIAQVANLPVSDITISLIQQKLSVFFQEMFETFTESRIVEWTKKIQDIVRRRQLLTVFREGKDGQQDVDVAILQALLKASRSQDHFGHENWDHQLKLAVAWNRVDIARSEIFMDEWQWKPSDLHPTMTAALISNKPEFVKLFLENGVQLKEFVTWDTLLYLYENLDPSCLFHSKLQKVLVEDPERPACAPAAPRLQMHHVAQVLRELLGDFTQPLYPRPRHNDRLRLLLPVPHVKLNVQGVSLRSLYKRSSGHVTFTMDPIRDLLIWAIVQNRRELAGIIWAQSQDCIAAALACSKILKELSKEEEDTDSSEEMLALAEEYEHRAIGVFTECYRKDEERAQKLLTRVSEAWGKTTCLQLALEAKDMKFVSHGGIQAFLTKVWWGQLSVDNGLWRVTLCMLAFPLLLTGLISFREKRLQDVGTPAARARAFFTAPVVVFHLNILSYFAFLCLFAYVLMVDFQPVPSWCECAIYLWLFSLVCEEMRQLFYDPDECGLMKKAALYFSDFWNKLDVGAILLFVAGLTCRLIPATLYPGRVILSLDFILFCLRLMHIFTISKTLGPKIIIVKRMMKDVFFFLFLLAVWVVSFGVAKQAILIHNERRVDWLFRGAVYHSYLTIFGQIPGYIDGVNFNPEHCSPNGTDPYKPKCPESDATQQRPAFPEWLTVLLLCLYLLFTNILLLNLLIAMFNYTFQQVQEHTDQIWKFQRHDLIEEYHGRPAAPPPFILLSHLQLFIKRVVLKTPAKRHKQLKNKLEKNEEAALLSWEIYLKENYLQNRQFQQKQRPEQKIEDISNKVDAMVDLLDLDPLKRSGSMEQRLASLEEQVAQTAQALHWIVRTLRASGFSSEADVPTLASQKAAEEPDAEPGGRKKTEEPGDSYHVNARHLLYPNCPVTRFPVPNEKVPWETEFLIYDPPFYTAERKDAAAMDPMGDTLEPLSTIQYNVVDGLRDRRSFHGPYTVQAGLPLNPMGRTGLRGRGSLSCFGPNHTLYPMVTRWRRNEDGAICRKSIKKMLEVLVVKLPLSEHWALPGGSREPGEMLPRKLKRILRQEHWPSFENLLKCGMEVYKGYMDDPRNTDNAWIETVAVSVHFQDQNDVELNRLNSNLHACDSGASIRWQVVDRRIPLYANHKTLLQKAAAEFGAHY

Consider `NCCOB(c1ccccc1)c1ccccc1`, for which the IC50 (in general, the concentration that gives 50% inhibition) was found to be 5 µM.

Values taken from ChEMBL document CHEMBL4842361, “Design, synthesis and biological activities of benzo[d]imidazo[1,2-a]imidazole derivatives as TRPM2-specfic inhibitors” (Eur J Med Chem, 2021).
